## Reported water solubility values for industrial, environmental and drug-like chemicals

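OPERA's authors assembled the values from existing databases and did not measure them anew. The files give a single number for a compound and property, which may rest on several reports. How each value was measured is not recorded, so precision varies. A value may pool stereoisomers or salt forms, and the file does not say which form was measured. Some entries may be limits or estimates that an upstream database listed as plain numbers.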

Water solubility is log10 of mol/L, nominally at 25 °C; higher is more soluble.
Cells with "–" have no entry in this list.

compound	name	log solubility (log10 mol/L)
CCCCCCCCCCCCOC(=O)c1cccnc1	Nicotinic acid, dodecyl ester	-3.29
Nc1ccccc1N	1,2-Phenylenediamine	-0.42
Clc1ccc(Oc2c(Cl)cccc2Cl)cc1Cl	Benzene, 1,3-dichloro-2-(3,4-dichlorophenoxy)-	-6.56
N#CCCN(CCC#N)c1ccc(N=Nc2ccc([N+](=O)[O-])cc2Cl)cc1	–	-4.282
Nc1cc(S(=O)(=O)O)c(N)c(S(=O)(=O)O)c1	2,5-Diaminobenzene-1,3-disulfonic acid	-0.069
CC(=O)OCCSCCOC(C)=O	Ethanol, 2,2'-thiodi-, diacetate	-0.98
C=CC(C)(C)C	3,3-Dimethyl-1-butene	-3.413
CN(C)c1nc(N)nc(N(C)C)n1	Melamine, N(sup 2),N(sup 2),N(sup 4),N(sup 4)-tetramethyl-	-2.69
CCCCCCOC(=O)CC	Hexyl propanoate	-3.399
CCCCCCCCCc1ccccc1	1-Phenylnonane	-6.766
COc1ccc([N+](=O)[O-])cc1OC(C)=O	2-Methoxy-5-nitrophenol acetate	-2.947
CC[C@H](NC(=O)[C@H](CC)NC(=O)[C@H](CC)NC(=O)[C@H](CC)NC(=O)[C@H](CC)NC(=O)[C@@H](N)CC)C(=O)O	–	-2.682
COc1nc(N)nc2c1ncn2[C@@H]1O[C@H](CO)[C@@H](O)[C@@H]1O	Nelarabine	-1.33
CCCc1ccc(-c2ccc(OCC)c(F)c2F)cc1	–	-7.119
COc1cc(OC)nc(N=C(O)NS(=O)(=O)N(C)S(C)(=O)=O)n1	Amidosulfuron	-2.08
CCCCCOc1ccc2c(oc3c(F)c(OCC)ccc32)c1F	3-Ethoxy-4,6-difluoro-7-pentyloxy-dibenzofurane	-7.093
CCCCCCCC/C=C\CCCCCCCC(=O)NCCCN(C)CCCNC(=O)CCCCCCC/C=C\CCCCCCCC	–	-8.431
NC(=O)NC1(N)NC(=O)N=C1N (stereo unspecified)	(4,5-Diamino-2,5-dihydro-2-oxo-1H-imidazol-5-yl)urea	-1.838
N=c1oc(=N)oc(=N)o1	1,3,5-Trioxane-2,4,6-triimine	-3.111
COc1ccc2cccc(CC#N)c2c1	7-Methoxy-1-naphthylacetonitrile	-4.158
O=c1cnc2cncnc2[nH]1	7(8H)-Pteridinone	-2.125
CCN(Cc1cccc(S(=O)(=O)[O-])c1)c1ccc(C(=C2C=CC(=[N+](CC)Cc3cccc(S(=O)(=O)[O-])c3)C=C2)c2ccccc2)cc1.[Na+]	FD&C Green No. 1	-1.362
Clc1ccc(Oc2c(Cl)c(Cl)cc(Cl)c2Cl)c(Cl)c1Cl	2,2',3,3',4,5',6'-Heptachlorodiphenyl ether	-9.09
CCCC1CC=C(C)C(=O)C1 (stereo unspecified)	2-Methyl-5-propylcyclohex-2-en-1-one	-2.353
O=c1c2ccccc2c(=O)c2c1ccc1c2[nH]c2c3c(=O)c4ccccc4c(=O)c3c3[nH]c4c(ccc5c(=O)c6ccccc6c(=O)c54)c3c12	Vat brown 1	-4.51
C/C=C/C(=O)[C@@H]1[C@@H](C)C=CCC1(C)C	–	-3.396
NC(=O)Nc1ccc(Cl)c(Cl)c1	3,4-Dichlorophenylurea	-2.959
CC(C)CCl	Propane, 1-chloro-2-methyl-	-2
Nc1cc(Cl)c(NC2=NCCN2)c(Cl)c1	–	-2.778
CN(C)C(=O)c1ccccc1	Benzamide, N,N-dimethyl-	-0.824
Clc1ccc(Oc2cc(Cl)c(Cl)c(Cl)c2Cl)c(Cl)c1Cl	2,2',3,3',4,4',5-Heptachloro-diPh ether	-9.12
COc1ccc(N)cc1Cl	2-Chloro-4-anisidine	-1.932
O=C1OC(=O)C2CCCCC12 (stereo unspecified)	Hexahydrophthalic anhydride	-1.565
CC(C)(N)CO.Cn1c(=O)c2[nH]c(Br)nc2n(C)c1=O	Pamabrom [USAN:USP]	0.064
CCOC(=O)[C@@H]1[C@@H](C)CCCC1(C)C (stereo in doubt)	Ethyl (1R,6S)-2,2,6-trimethylcyclohexanecarboxylate	-3.803
C=CCN(CC=C)c1cc(NC(C)=O)c(N=Nc2c(Cl)cc([N+](=O)[O-])cc2[N+](=O)[O-])cc1OC	–	-4.388
C=CC(=O)OCCOCCOC(C)OCC(COC(C)OCCOCCOC(=O)C=C)(COC(C)OCCOCCOC(=O)C=C)NC(=O)COc1ccc2sc3ccccc3c(=O)c2c1 (stereo unspecified)	Omnipol 3TX	-5.289
CC(C)(C)CCCCC(=O)O	Neononanoic acid	-2.475
CCOC(=O)/C(=C/c1ccccc1)N=CO	Ethyl 2-formamido phenyl acrylate	-2.891
O=C(O)/C=C/c1c[nH]cn1	Urocanic acid	-1.96
N=C(N)NCC(=O)O	–	-1.51
Cn1c(=S)c2c(ncn2C)n(C)c1=O	6-Thiocaffeine	-3.323
Nc1ncnc2c1ncn2[C@H]1CC[C@@H](CO)O1	2',3'-Dideoxyadenosine	-2.526

Excerpt, the final 3 entries:

{"smiles": "N=C(N)NCC(=O)O", "log solubility (log10 mol/L)": "-1.51"}
{"smiles": "Cn1c(=S)c2c(ncn2C)n(C)c1=O", "name": "6-Thiocaffeine", "log solubility (log10 mol/L)": "-3.323"}
{"smiles": "Nc1ncnc2c1ncn2[C@H]1CC[C@@H](CO)O1", "name": "2',3'-Dideoxyadenosine", "log solubility (log10 mol/L)": "-2.526"}

Data: OPERA 2.9 data sets, kmansouri/OPERA on GitHub.